Among the data in ChEMBL document CHEMBL3297697, “Property- and structure-guided discovery of a tetrahydroindazole series of interleukin-2 inducible T-cell kinase inhibitors” (J Med Chem, 2014) are Ratio Ki, IC50 and Ki values, retold here.

The species named for assay [1] is Homo sapiens. Put plainly: Selectivity ratio of Ki for human His-tagged full length AURKAto Ki for GST-tagged full length ITK (unknown origin).
Assay [2] deals with T1, Tyrosine-protein kinase ITK/TSK (Homo sapiens, UniProt Q08881).
T1 sequence (Q08881 whole entry): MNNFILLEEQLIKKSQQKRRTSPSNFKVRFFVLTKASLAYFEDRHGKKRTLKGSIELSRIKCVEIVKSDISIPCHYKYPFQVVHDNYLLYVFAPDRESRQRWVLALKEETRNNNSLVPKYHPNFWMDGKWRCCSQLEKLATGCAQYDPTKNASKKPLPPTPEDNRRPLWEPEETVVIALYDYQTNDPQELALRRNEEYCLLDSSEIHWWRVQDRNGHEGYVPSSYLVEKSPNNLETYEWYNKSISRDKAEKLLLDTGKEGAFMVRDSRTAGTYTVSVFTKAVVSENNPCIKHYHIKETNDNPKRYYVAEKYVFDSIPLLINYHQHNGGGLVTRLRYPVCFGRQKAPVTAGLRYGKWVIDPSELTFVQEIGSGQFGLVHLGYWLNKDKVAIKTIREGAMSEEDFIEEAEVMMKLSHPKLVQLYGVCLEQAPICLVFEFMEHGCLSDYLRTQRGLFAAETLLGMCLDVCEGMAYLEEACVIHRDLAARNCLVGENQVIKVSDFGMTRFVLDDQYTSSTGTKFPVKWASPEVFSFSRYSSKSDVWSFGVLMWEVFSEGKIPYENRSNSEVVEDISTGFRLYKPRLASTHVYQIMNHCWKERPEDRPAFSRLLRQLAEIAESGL

In assay [3] the target is T1, Tyrosine-protein kinase ITK/TSK. This is another data set of the same source.

Take `CC1CCc2c(C(=O)Nc3cnn(Cc4ccccc4)c3)n[nH]c2C1` (configuration not stated): the Ratio Ki in assay [1] was 6.

Regarding `CC1CCc2c(C(=O)Nc3cnn(Cc4ccccc4)c3)n[nH]c2C1` (racemic) [listing 1 of 2 here], the Ratio Ki in assay [1] turned out to be 50.

Turning to `O=C(Nc1cnn(Cc2ccccc2)c1)c1n[nH]c2c1CC1CC1C2` (racemic), half-maximal inhibition in assay [2] (IC50) was put at 7100 nM.

For `O=C(Nc1cnn(Cc2ccccc2)c1)c1n[nH]c2c1CCC1(CC1)C2`, the IC50 (commonly the concentration that inhibits the measured activity by half) in assay [2] turned out to be 950 nM.

With `CC1(CO)CCc2c(C(=O)Nc3cnn(Cc4ccccc4)c3)n[nH]c2C1` (racemic), the IC50 in assay [2] worked out at 530 nM. For the same compound, in assay [3], the inhibition constant (Ki) (commonly the equilibrium dissociation constant of an inhibitor or competing ligand from its target) came to 8 nM.

For `O=C(Nc1cnn(Cc2ccccc2)c1)c1n[nH]c2c1CCC1(CCOC1)C2` (racemic), the Ratio Ki in assay [1] is over 100.

`O=C(Nc1cnn(Cc2ccccc2)c1)c1n[nH]c2c1CCC1(CCOC1)C2` (configuration not stated) showed a Ki in assay [3] of 55 nM.

In turn, `CC1CCc2c(C(=O)Nc3cnn(Cc4ccccc4)c3)n[nH]c2C1` (racemic) [listing 2 of 2 here] came in with an IC50 in assay [2] of 930 nM.

In the case of `CC1(C)CCc2c(C(=O)Nc3cnn(Cc4ccccc4)c3)n[nH]c2C1`, the Ratio Ki in assay [1] turned out to be 90. Inhibition in assay [2] was half-maximal at 5200 nM (IC50).

For `O=C(Nc1cnn(Cc2ccccc2)c1)c1n[nH]c2c1CCC(F)(F)C2`, in assay [1], the Ratio Ki came to 5.
